Assay results as given in PubChem BioAssay AID538 (PCMD, 2006).
This is a selection; strong and weak results do not stand in their true shares. Some of these compounds have results that are not shown, active ones among them. The source made the active and inactive calls.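 The calls were made as follows: active = inhibition above 20% in each of the two 10-compound mixture wells holding the compound; inactive = the rest.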

The chains behind the UniProt entries cited, without tags or fusion partners. Residues count along the entry.
UniProt P09871, 16-437 limits assumed: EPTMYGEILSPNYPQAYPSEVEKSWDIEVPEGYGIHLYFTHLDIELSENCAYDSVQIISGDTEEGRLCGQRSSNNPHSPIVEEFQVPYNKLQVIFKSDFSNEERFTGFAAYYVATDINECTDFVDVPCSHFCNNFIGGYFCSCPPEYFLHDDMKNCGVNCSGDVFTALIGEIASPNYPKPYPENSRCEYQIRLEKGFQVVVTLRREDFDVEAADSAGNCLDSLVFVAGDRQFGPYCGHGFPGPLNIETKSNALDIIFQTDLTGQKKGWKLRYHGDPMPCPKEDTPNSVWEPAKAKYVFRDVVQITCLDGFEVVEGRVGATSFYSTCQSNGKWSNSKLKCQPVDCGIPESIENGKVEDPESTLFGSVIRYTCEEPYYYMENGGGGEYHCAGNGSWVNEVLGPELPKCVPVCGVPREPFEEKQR
UniProt P09871, 438-688 limits assumed: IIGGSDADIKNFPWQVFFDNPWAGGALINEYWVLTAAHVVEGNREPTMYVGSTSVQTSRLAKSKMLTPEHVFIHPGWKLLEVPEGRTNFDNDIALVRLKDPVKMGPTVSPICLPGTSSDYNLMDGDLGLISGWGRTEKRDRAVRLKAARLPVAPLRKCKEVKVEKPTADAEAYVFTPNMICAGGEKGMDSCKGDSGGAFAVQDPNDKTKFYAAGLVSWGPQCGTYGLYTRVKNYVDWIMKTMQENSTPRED

Each compound was assayed against Complement C1s subcomponent (Homo sapiens) (UniProt P09871) (assay: complement C1s protease inhibitors, primary screen, biochemical, 10-compound mixtures (AID 538;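 also: 0% = enzyme wells lacking compound mixture and 100% = no-enzyme blank wells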)). Conditions: purified C1s, fluorogenic AMC substrate, pooled mixtures; screened at 5 µM (by protocol).

| Compound | mean inhibition % of two 10-compound mixtures (stronger effect = higher value) |
| --- | --- |
| CN(C)c1cccc(C(=O)NCC2(N(C)C)CCCCC2)c1 | inactive: 12.4% |
| O=C(OC1CN2CCC1CC2)C(CO)(c1ccccc1)c1ccccc1 (configuration not stated) | inactive: -14.6% |
